Assays:
pancreatectomized dogs = assay: Subcutaneous studies in pancreatectomized (diabetic) dogs: plasma glucose; details: dog, in vivo, sc
normal dog = details: in vivo

Substance: phosphorylated insulin: porcine insulin chemically phosphorylated with POCl3/phosphoric acid in DMF; 3 or 5 negatively charged adducts; about 5-10% unmodified
- plasma glucose at greater than 4-fold larger doses (pancreatectomized dogs): delayed tendency to levels beneath the normal range
- insulin concentrations in the periphery relative to regular insulin (normal dog): almost two-fold higher

— patent US5242900A, “Treatment of diabetes using phosphorylated insulin” (priority 1991, dated 1993)
